Laboratory results as given in the NIST ThermoML archive (doi:10.1016/j.fluid.2005.11.026).

Settings: 313.15 K; Liquid; Closed cell (Static) method

Compound: CCCCOCCCC [dibutyl ether]
- vapor or sublimation pressure: 2.062 ± 0.022 kPa and 2.079 ± 0.023 kPa and 2.075 ± 0.023 kPa

Several values for one entry are separate records, joined by “and”; a condition that tells them apart may be missing. Identical values can stand only once. Numbers after ± are expanded uncertainties.
